The values that follow are results of earlier work, collected in patent US20250304560A1, “MODULATORS OF NLRP3 INFLAMMASOME AND RELATED PRODUCTS AND METHODS” (Neumora Therapeutics, Inc., priority 2022, published 2025).

By UniProt entry, the sequences of proteins in these tests, tags left out. Where a name states a change or a piece, a line headed by the entry shows the natural chain unless it says otherwise.
UniProt Q12809: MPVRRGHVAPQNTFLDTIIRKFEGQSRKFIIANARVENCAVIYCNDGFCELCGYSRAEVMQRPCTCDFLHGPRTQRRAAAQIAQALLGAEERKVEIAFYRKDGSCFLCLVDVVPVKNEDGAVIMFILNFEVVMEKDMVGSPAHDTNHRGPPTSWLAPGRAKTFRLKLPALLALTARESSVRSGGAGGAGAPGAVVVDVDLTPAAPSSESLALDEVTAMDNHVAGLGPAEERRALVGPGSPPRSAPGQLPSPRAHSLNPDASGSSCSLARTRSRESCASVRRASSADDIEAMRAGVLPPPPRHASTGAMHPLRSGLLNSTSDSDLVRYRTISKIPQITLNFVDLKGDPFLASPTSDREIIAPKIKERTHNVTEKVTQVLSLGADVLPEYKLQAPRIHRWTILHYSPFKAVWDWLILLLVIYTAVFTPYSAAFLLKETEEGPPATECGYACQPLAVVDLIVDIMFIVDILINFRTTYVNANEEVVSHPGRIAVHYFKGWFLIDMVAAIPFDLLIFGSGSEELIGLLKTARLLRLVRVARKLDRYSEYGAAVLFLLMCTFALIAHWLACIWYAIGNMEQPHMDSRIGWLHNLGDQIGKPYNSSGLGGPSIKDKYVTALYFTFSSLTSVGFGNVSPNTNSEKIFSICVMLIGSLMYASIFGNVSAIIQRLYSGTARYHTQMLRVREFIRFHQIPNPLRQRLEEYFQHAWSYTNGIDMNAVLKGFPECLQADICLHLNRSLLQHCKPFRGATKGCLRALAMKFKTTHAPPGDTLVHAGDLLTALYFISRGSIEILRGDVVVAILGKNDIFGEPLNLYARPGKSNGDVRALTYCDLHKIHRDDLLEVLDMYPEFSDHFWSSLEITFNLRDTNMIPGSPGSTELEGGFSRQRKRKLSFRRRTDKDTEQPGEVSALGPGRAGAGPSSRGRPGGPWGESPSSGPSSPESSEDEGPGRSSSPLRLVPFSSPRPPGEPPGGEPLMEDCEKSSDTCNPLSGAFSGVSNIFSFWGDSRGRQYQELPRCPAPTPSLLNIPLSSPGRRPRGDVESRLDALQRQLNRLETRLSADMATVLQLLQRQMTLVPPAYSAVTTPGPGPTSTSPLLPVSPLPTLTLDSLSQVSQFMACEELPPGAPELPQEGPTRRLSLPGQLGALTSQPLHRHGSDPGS

For this data set, the target named is T1, hERG channels (Homo sapiens, UniProt Q12809).
T1 construct: host or cells: CHO-hERG cells
Particulars: 100 nM, positive control, according to scientific literature (Milnes et al.); cited from earlier work.

Turning to `COc1cc(N)c(Cl)cc1C(=O)NC1CCN(CCCOc2ccc(F)cc2)CC1OC` (stereo not shown) [cisapride], the “inhibition of hERG current” value was “more than 50%”.
